Source: ChEMBL document CHEMBL4118094, “Structure-Guided Design and Initial Studies of a Bifunctional MEK/PI3K Inhibitor (ST-168)” (ACS Med Chem Lett, 2017)

Protein sequences, listed by entry. Tags and fused reporters are not part of them.
UniProt P42336, whole entry: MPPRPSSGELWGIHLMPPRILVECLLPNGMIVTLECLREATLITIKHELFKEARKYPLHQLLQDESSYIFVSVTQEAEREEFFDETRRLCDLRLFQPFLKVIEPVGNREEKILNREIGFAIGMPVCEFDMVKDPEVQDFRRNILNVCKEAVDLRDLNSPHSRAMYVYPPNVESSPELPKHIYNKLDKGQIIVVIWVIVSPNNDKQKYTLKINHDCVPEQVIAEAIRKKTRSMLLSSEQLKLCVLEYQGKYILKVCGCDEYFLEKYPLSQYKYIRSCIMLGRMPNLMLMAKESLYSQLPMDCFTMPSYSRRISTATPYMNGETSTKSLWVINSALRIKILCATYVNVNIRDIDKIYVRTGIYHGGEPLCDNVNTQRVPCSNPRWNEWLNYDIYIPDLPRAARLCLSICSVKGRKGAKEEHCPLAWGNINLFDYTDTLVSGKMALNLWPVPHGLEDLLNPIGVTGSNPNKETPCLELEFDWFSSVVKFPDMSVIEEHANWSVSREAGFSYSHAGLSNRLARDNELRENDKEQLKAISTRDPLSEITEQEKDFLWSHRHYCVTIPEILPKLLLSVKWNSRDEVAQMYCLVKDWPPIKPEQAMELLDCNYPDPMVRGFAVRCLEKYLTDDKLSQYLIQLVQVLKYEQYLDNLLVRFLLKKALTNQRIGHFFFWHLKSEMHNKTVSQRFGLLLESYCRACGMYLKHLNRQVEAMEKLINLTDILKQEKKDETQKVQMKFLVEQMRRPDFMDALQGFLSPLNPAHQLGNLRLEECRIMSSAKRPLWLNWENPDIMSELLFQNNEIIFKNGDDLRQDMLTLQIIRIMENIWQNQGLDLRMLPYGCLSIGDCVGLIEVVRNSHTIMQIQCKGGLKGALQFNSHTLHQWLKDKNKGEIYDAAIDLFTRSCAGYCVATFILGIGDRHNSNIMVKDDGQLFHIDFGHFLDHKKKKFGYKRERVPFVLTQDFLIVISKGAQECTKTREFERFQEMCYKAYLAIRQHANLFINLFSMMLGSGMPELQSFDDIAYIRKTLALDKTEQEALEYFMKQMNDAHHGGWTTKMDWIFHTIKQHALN

What was measured:
[1] = target: T1, Phosphatidylinositol 4,5-bisphosphate 3-kinase catalytic subunit delta isoform (Homo sapiens, UniProt O00329); assay: Inhibition of PI3K delta (unknown origin)
T1 sequence (O00329 whole entry): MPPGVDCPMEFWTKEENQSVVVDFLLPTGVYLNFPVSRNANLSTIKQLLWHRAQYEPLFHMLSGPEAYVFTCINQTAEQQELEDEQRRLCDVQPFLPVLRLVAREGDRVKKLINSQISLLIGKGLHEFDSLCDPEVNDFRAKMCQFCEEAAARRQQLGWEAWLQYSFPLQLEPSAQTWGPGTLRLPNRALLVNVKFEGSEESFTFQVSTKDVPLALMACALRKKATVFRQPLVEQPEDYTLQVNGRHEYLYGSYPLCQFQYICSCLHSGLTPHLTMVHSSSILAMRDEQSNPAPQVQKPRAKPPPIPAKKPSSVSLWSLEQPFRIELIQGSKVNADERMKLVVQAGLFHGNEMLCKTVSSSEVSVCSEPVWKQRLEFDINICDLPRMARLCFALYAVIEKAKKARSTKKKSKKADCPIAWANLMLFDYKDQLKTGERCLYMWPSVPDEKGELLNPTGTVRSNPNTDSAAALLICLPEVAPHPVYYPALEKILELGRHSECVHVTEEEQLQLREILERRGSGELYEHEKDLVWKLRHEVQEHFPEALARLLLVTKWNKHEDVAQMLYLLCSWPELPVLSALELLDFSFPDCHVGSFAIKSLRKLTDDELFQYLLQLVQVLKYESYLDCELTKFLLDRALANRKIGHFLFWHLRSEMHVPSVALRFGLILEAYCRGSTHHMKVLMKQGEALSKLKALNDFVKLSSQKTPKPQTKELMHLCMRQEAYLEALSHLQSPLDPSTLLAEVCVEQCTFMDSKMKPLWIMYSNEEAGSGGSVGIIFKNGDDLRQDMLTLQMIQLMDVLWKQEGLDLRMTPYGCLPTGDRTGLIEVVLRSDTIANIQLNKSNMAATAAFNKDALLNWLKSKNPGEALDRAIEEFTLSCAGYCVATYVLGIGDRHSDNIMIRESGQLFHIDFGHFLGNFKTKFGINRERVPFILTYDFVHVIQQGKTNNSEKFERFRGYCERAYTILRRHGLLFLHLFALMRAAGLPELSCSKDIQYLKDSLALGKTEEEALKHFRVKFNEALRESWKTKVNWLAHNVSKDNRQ

[2] = target: Phosphatidylinositol 4,5-bisphosphate 3-kinase catalytic subunit alpha isoform (Homo sapiens, UniProt P42336)

IC50 [1]: < 0.7 nM
IC50 [2]: < 0.7 nM
SMILES: Cc1nc(-c2cn3c(n2)-c2ccc(-c4cnn(C(C)(C)C(N)=O)c4)cc2OCC3)n(C(C)C)n1 [TASELISIB]
